Data: ChEMBL document CHEMBL1157424, “Alisiaquinones and alisiaquinol, dual inhibitors of Plasmodium falciparum enzyme targets from a New Caledonian deep water sponge” (J Nat Prod, 2008)

Species: Rattus norvegicus
Experiment: Inhibition of rat PFTase

C[C@@]12CCC[C@]3(C)c4cc5c(cc4C(=O)[C@](O)(OC1)[C@H]23)C(=O)C=CC5=O [ALISIAQUINONE A]
Ratio IC50: 2.8
